{
  "source": "patent US12527781B2",
  "about": "“Treatment of neurodegenerative conditions by disruption of Rhes” (The Regents of the University of California, priority 2017, dated 2026)",
  "origin": "cited, not measured here",
  "target": "farnesyl transferase (Homo sapiens, UniProt P49356)",
  "conditions": "farnesyl transferase inhibitor; cited from earlier work",
  "data": [
    {"smiles": "NC(=O)N1CCC(CC(=O)N2CCC([C@H]3c4ncc(Br)cc4CCc4cc(Cl)cc(Br)c43)CC2)CC1", "note": "[Lonafarnib]", "values": [
      {"measurement": "Ki", "result": "in the nM range"}
    ]}
  ]
}
